Experiment [1] is filed under the species Mus musculus. In words: Antinociception was determined in tail-flick assay. Compound dose at peak time of 18 hr was reported. Time duration is 72-96 h. (Hot-plate and tail-flick tests time the reaction to a heat stimulus.)
The species entered for experiment [2] is Mus musculus. In words: Effective dose required to produce equivalent antagonism of U50,488 antinociception in abdominal-stretch assay. Value at peak time of 30 min was reported at <4 h.
Experiment [3] is filed under the species Mus musculus. The experiment in a line: Tested for agonist potency by conducting tests on mouse vas deferens preparation.
The subject of experiment [4] is Mus musculus. The experiment in a line: In vivo the compound was tested for antinociceptive potency by Mouse abdominal stretch assay. The note with it: Abdomen.
The species entered for another experiment is Cavia porcellus. In words: Agonist potency was determined in electrically stimulated guinea pig ileal longitudinal muscle preparation, pre-incubated with 5 and 20 nM norBNI for 15 min. The note with it: Muscle tissue.
The species entered for experiment [5] is Mus musculus. In words: Dose required to produce equivalent antagonism of U50,488 antinociception was determined in tail-flick assay. Compound dose at peak time of 18 h was reported. Time duration is 72-96 h.
The target of experiment [6] is T1, Kappa-type opioid receptor (Cavia porcellus, UniProt P41144). The experiment in a line: Tested for competitive covalent binding of compound against k opioid receptor in guinea pig brain membrane using [3H]U-69593 as radioligand.
Experiment [7] is filed under the species Mus musculus. The experiment in a line: Tested for antinociceptive potency by Mouse abdominal stretch assay. The following applies: Abdomen.
For experiment [8], the species on record is Mus musculus. The experiment in a line: Effective dose required to produce equivalent antagonism of U50,488 antinociception in abdominal-stretch assay. Value at peak time of 30 min was reported at <4 h.
The next experiment has as its target Mu-type opioid receptor (Cavia porcellus, UniProt P97266). In words: Binding affinity for mu opioid receptor in guinea pig brain membranes; using 2 nM [3H]DAMGO as radioligand.
For experiment [9], the target named is T1, Kappa-type opioid receptor. In words: Tested for competitive covalent binding of compound against k opioid receptor in guinea pig brain membrane; using [3H]U-69593 as radioligand.

The chains behind the UniProt entries cited, without tags or fusion partners. Where a name states a change or a piece, a line headed by the entry shows the natural chain unless it says otherwise.
UniProt P41144: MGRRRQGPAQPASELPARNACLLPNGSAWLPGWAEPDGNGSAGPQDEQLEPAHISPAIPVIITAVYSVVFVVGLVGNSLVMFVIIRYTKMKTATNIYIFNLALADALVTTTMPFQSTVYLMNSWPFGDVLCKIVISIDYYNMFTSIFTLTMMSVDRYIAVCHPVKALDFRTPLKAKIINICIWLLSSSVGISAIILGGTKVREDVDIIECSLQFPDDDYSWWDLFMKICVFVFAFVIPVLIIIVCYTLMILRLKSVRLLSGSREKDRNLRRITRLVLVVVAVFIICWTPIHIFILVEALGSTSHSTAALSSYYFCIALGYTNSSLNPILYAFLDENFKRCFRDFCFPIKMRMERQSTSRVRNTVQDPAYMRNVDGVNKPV
UniProt P97266, whole entry, looked up: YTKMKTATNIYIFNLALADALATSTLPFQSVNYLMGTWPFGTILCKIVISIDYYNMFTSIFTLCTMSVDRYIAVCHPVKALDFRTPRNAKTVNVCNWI

Molecules are shown by their SMILES.

In the experiment filed under Mus musculus [1], `CN(C(=O)Cc1ccc(Cl)c(Cl)c1)[C@H](CN1CCCC1)c1ccc(N=C=S)cc1` came in with a Dose of 4260 nM/kg. Further, the ED50 in the experiment listed under Mus musculus [2] and in the experiment with Mus musculus [4] was 0.71 µmol/kg throughout. Besides, the IC50 (in general, the concentration that inhibits the measured activity by half) in the experiment filed under Mus musculus [3] was 40 nM.

`CN(C(=O)Cc1ccc(Cl)c(Cl)c1)[C@H](CN1CCCC1)c1cccc(N=C=S)c1`: in the experiment listed under Cavia porcellus, the Ke was found to be 0.3 nM. In addition, in the experiment listed under Mus musculus [5], the Dose was found to be 65.4 nM/kg. In addition, in experiment [6], the Kd – broadly, the free concentration of one partner at which half of the binding sites on the other are occupied at equilibrium, for simple one-to-one binding – worked out at 2.43 nM. In addition, the ED50 in the experiment listed under Mus musculus [7] and in the experiment listed under Mus musculus [8] was 1.53 µmol/kg in each case. Further, in the experiment listed under Mus musculus [3], the IC50 worked out at 14.9 nM.

Turning to `CN(C(=O)Cc1ccc(Cl)c(Cl)c1)[C@@H](CN1CCCC1)c1ccccc1`, in the experiment filed under Mus musculus [3], the IC50 was 87 nM. This lies in the double-digit nanomolar range.

Compound `COC(=O)/C=C/C(=O)Nc1ccc([C@@H](CN2CCCC2)N(C)C(=O)Cc2ccc(Cl)c(Cl)c2)cc1` came in with a half-maximal inhibitory concentration (IC50) in the experiment listed under Mus musculus [3] of 22.7 nM. This IC50 is about 3.8-fold lower than that of the compound before.

With `CN(C(=O)Cc1ccc(Cl)c(Cl)c1)C(CN1CCCC1)c1ccc(N)cc1` (centres undefined), the concentration for half-maximal inhibition (IC50) in the experiment listed under Mus musculus [3] was 4.5 nM.

On to `CN(C(=O)Cc1ccc(Cl)c(Cl)c1)[C@H](CN1CCCC1)c1cccc(N)c1`, for which the IC50 is 30.7 nM at Mu-type opioid receptor and 0.12 nM in the experiment filed under Mus musculus [3]. For the same compound, in experiment [9], binding was characterised by a dissociation constant (Kd) of 3.36 nM.

Regarding `COC(=O)/C=C/C(=O)Nc1cccc([C@@H](CN2CCCC2)N(C)C(=O)Cc2ccc(Cl)c(Cl)c2)c1`, in the experiment filed under Mus musculus [3], the IC50 was determined as 5.4 nM.

On to `CN(C(=O)Cc1ccc(Cl)c(Cl)c1)[C@H](CN1CCCC1)c1ccccc1` [ICI-199,441], for which the Ke in the experiment filed under Cavia porcellus worked out at 0.05 nM. In addition, the 50% effect level in the experiment filed under Mus musculus [7] (ED50) was put at a dose of 0.017 µmol/kg.

Values taken from ChEMBL document CHEMBL1127305, “kappa Opioid receptor selective affinity labels: electrophilic benzeneacetamides as kappa-selective opioid antagonists” (J Med Chem, 1994).
